Experimental data reported in patent publication US8940742B2, “Heterocyclic compounds and uses thereof” (Infinity Pharmaceuticals, Inc., priority 2012, dated 2015).

The chains behind the UniProt entries cited, without tags or fusion partners. Where a name states a change or a piece, a line headed by the entry shows the natural chain unless it says otherwise.
UniProt P48736: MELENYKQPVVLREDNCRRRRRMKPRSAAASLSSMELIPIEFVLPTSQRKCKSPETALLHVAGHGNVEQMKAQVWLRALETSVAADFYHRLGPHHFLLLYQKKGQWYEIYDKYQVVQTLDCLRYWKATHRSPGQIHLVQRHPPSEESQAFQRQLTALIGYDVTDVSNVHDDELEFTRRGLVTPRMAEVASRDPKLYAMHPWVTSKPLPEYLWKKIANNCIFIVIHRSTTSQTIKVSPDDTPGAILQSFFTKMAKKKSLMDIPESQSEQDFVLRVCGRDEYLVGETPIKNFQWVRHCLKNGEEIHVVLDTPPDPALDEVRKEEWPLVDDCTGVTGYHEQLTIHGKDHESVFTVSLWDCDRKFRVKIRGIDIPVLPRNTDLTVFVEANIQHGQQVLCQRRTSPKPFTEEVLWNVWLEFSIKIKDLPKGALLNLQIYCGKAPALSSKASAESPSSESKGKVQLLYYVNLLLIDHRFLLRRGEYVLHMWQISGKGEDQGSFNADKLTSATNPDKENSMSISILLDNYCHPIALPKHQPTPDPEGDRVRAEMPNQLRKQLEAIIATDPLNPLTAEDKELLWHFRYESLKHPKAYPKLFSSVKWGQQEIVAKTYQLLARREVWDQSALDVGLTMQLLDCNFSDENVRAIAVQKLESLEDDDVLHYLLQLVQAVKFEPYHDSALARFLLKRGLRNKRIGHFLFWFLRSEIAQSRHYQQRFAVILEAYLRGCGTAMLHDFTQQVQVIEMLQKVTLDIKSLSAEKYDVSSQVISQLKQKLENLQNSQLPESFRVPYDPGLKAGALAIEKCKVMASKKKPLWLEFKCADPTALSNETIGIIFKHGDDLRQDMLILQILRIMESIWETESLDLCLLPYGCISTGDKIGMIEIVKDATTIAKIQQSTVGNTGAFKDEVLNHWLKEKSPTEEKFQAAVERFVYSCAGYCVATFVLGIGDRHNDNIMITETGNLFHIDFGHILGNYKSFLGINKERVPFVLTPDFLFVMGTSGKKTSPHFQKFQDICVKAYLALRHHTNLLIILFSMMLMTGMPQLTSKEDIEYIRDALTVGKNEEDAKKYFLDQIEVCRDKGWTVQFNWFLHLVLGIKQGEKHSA
UniProt Q9JHG7: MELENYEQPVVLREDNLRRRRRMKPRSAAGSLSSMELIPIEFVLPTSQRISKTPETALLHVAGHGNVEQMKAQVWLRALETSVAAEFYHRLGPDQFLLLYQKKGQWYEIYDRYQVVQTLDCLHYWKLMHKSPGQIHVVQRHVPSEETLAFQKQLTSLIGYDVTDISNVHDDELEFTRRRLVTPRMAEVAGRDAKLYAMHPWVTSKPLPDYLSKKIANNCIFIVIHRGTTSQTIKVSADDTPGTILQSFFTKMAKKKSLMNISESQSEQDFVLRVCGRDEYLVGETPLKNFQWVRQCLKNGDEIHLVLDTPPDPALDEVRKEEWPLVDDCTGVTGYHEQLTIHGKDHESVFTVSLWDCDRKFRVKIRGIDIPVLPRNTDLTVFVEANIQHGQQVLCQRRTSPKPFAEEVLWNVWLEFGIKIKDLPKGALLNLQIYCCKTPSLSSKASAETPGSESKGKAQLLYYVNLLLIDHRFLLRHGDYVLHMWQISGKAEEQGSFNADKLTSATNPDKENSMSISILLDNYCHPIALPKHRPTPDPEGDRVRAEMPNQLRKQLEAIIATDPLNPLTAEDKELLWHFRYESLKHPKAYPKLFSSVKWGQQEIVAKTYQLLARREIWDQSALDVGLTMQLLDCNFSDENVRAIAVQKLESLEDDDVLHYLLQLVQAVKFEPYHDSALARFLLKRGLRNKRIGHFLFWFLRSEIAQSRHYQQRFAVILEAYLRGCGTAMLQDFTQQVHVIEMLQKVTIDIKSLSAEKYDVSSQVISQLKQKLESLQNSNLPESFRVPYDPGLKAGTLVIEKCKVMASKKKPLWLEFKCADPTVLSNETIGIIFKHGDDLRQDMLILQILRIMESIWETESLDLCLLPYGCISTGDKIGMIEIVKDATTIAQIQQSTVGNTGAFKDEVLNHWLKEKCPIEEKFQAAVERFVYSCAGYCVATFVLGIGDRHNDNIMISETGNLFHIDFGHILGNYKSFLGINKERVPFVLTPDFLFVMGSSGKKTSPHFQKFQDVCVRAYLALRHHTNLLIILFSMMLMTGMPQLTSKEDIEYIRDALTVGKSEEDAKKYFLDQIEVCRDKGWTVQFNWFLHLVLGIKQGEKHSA

Columns and labels:
PI3K γ = target: T1, PI3K γ (Homo sapiens, UniProt P48736); experiment: PI3-Kinase Promega ADP-Glo Max assay; assay type: biochemical
T1 construct: purchased Millipore
Experimental: Promega ADP-Glo Max assay kit (Cat. No. V7002) was utilized to determine IC50 values for α, β, δ and γ isoforms of human Class I PI3 kinases (Millipore). […] Reactions were incubated at room temperature for 2 hours followed by addition of 25 uL of stop solution. After a 40-minute incubation at room temperature, 50 uL of Promega detection mix was added followed by incubation for 1 hour at room temperature. Plates were then read on Envision plate reader in luminescence mode. Data was converted to % inhibition using the following equation below:
[formula] where S is the sample luminescence, Pos is a positive control without added PI3K, Neg is the negative control without added compound. Data was then plotted as % inhibition vs compound concentration.
Certain compounds provided herein were tested in PI3-Kinase Promega Assay using procedures as described above to determine IC50 values for α, β, δ and/or γ isoforms.

Raw264.7 p110 γ = target: T2, Raw264.7 p110 γ (Mus musculus, UniProt Q9JHG7); experiment: Raw264.7 p110 γ cellular assay (phospho-AKT); assay type: cell-based
T2 construct: reduction of phospho-AKT in stimulated RAW 264.7 cells; endogenous in cells; host or cells: RAW264.7 macrophages
From the text: (b) PI3K-γ Selective Assay
Briefly, serum-starved PAW264.7 cells are stimulated with a known GPCR agonist C5a. […] Cells can be treated with test compounds prior to, simultaneously with, or subsequent to the stimulation by C5a. RAW 264.7 cells respond to the complement component fragment C5a through activation of the C5a receptor, and the C5a receptor activates macrophages and induces cell migration.

With `C[C@H](NC(=O)c1c(N)nn2cccnc12)c1cc2cccc(Cl)c2c(=O)n1-c1ccccc1` [Compound 70] as the molecule, how does the IC50 (PI3K γ) read?
The IC50 was < 100 nM.

What about the IC50 (Raw264.7 p110 γ) of the same molecule?
Its IC50 is < 100 nM.
